Among the data in patent US20210395313A1, “PEPTIDE PAC1 ANTAGONISTS” (AMGEN INC., priority 2017, published 2021) are IC50 values, retold here.

The target of one assay is T1, human PAC1 receptor (Homo sapiens, UniProt P41586).
T1 construct: SHSY-5Y (human neuroblastoma cell line) and RG-2 (rat glioma cell line) cells endogenously express human and rat PAC1 receptors, respectively; endogenous in cells; host or cells: SHSY-5Y human neuroblastoma cells
T1 sequence (P41586 21-468): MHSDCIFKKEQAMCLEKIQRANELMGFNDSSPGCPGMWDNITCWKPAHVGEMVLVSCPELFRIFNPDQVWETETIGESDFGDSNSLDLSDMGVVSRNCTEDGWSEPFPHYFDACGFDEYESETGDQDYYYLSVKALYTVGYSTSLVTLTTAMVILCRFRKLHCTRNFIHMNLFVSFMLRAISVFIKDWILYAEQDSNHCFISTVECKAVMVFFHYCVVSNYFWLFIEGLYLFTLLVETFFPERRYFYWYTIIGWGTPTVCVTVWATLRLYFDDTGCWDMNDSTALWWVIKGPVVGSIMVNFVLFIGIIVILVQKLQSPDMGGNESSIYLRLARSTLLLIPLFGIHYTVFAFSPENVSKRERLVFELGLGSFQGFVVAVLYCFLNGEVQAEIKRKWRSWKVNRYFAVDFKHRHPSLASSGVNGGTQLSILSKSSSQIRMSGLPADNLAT
Nature of the assay: LANCE Ultra cAMP accumulation antagonist assay in SHSY-5Y cells.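 Also: inhibition of cAMP accumulation evoked by PAC1 agonist at its EC80 in SHSY-5Y cells endogenously expressing receptor, 30 min preincubation then 15 min agonist, TR-FRET readout.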 It is filed as cell-based.

A further assay concerns the target T2, rat PAC1 receptor (Rattus norvegicus, UniProt P32215).
T2 construct: SHSY-5Y (human neuroblastoma cell line) and RG-2 (rat glioma cell line) cells endogenously express human and rat PAC1 receptors, respectively; endogenous in cells; host or cells: RG-2 rat glioma cells
T2 sequence (P32215 20-523): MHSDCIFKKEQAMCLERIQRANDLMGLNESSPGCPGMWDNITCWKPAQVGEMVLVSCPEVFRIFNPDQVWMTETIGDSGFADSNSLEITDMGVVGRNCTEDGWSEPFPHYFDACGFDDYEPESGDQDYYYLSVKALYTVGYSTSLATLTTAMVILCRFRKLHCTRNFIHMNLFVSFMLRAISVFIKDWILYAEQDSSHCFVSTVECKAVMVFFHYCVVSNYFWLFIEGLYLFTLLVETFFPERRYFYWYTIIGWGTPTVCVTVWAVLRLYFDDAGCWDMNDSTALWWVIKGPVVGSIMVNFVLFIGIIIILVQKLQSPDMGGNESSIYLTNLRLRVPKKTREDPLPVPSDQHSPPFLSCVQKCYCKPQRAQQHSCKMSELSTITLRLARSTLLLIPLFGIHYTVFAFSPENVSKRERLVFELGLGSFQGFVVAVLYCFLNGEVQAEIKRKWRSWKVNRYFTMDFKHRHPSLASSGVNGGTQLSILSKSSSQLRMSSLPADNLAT
The assay is described as follows: LANCE Ultra cAMP accumulation antagonist assay in RG-2 cells.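 Also: RG-2 rat glioma cells endogenously expressing PAC1, test peptide preincubated 30 min, then PAC1 agonist added at its EC80 for 15 min, cAMP accumulation read by LANCE Ultra.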 It is filed as cell-based.

As for `CC[C@H](C)[C@H](NC(=O)[C@H](C)NC(=O)[C@H](CCCCN)NC(=O)[C@H](CCCNC(=N)N)NC(=O)[C@H](Cc1ccccc1)NC(=O)[C@H](CCC(N)=O)NC(=O)[C@@H]1CSSC[C@H](N)C(=O)N[C@@H](CC(=O)O)C(=O)N[C@@H](C)C(=O)N[C@@H]([C@@H](C)O)C(=O)N1)C(=O)N[C@@H](CC(=O)O)C(=O)N[C@@H](CC(=O)O)C(=O)N[C@H]1CSSC[C@@H](C(=O)N[C@@H](CCSC)C(=O)N[C@@H](CCCCN)C(=O)N[C@@H](CCC(N)=O)C(=O)N[C@@H](CCCCN)C(=O)N[C@@H](CCCCN)C(=O)N[C@@H](CCCCN)C(=O)N[C@@H](CCC(=O)O)C(=O)N[C@@H](Cc2ccccc2)C(=O)N[C@@H](CCCCN)C(=O)N[C@@H](C)C(=O)NCC(N)=O)NC(=O)C(C)(C)NC(=O)[C@H](CCCCN)NC(=O)[C@H](Cc2ccccc2)NC(=O)[C@H](C(C)C)NC(=O)[C@H](CO)NC(=O)CNC(=O)[C@@H]2CCCN2C(=O)[C@H](C(C)C)NC(=O)[C@H](CC(N)=O)NC(=O)[C@H](CO)NC(=O)[C@H](Cc2c[nH]cn2)NC(=O)[C@H](Cc2c[nH]cn2)NC(=O)[C@H](C)NC(=O)[C@H](CCC(N)=O)NC(=O)[C@H](CCCNC(=N)N)NC(=O)[C@H](CC(=O)O)NC1=O` [compound 229], the IC50 against human PAC1 receptor and at rat PAC1 receptor was 0.01 to 1 nM each time.

For the compound `CCCC[C@H](NC(=O)[C@@H]1CSSC[C@H](NC(=O)[C@H](CC(=O)O)NC(=O)[C@H](CC(=O)O)NC(=O)[C@@H](NC(=O)[C@H](C)NC(=O)[C@H](CCCCN)NC(=O)[C@H](CCCNC(=N)N)NC(=O)[C@H](Cc2ccccc2)NC(=O)[C@H](CCC(N)=O)NC(=O)[C@@H]2CSSC[C@H](N)C(=O)N[C@@H](CC(=O)O)C(=O)N[C@@H](C)C(=O)N[C@@H]([C@@H](C)O)C(=O)N2)[C@@H](C)CC)C(=O)N[C@@H](CC(=O)O)C(=O)N[C@@H](CCCCN)C(=O)N[C@@H](CCC(N)=O)C(=O)N[C@@H](C)C(=O)N[C@@H](Cc2ccc(O)cc2)C(=O)N[C@@H](Cc2c[nH]cn2)C(=O)N[C@@H](CO)C(=O)N[C@@H](CC(N)=O)C(=O)N[C@@H](C(C)C)C(=O)N2CCC[C@H]2C(=O)N[C@@H](CO)C(=O)N[C@@H](C(C)C)C(=O)N[C@@H](Cc2ccccc2)C(=O)N[C@@H](CCCCN)C(=O)NC(C)(C)C(=O)N1)C(=O)N[C@@H](CCCCN)C(=O)N[C@@H](CCC(N)=O)C(=O)N[C@@H](CCCCN)C(=O)N[C@@H](CCCCN)C(=O)N[C@@H](CCCCN)C(=O)N[C@@H](CCC(=O)O)C(=O)N[C@@H](Cc1ccccc1)C(=O)N[C@@H](CCCCN)C(=O)N[C@@H](C)C(=O)NCC(N)=O` [compound 251], the IC50 on human PAC1 receptor lay in the range of 1 to 100 nM; against rat PAC1 receptor, 0.01 to 1 nM.

As to `CCCC[C@H](NC(=O)[C@@H]1CSSC[C@H](NC(=O)[C@H](CC(=O)O)NC(=O)[C@H](CC(=O)O)NC(=O)[C@@H](NC(=O)[C@H](C)NC(=O)[C@H](CCCCN)NC(=O)[C@H](CCCNC(=N)N)NC(=O)[C@H](Cc2ccccc2)NC(=O)[C@H](CCC(N)=O)NC(=O)[C@@H]2CSSC[C@H](N)C(=O)N[C@@H](CC(=O)O)C(=O)N[C@@H](C)C(=O)N[C@@H]([C@@H](C)O)C(=O)N2)[C@@H](C)CC)C(=O)N[C@@H](CC(=O)O)C(=O)N[C@@H](CCCCN)C(=O)N[C@@H](CCC(N)=O)C(=O)N[C@@H](C)C(=O)N[C@@H](Cc2c[nH]cn2)C(=O)N[C@@H](Cc2c[nH]cn2)C(=O)N[C@@H](CO)C(=O)N[C@@H](CC(N)=O)C(=O)N[C@@H](C(C)C)C(=O)N2CCC[C@H]2C(=O)NCC(=O)N[C@@H](CC(N)=O)C(=O)N[C@@H](CO)C(=O)N[C@@H](C(C)C)C(=O)N[C@@H](Cc2ccccc2)C(=O)N[C@@H](CCCCN)C(=O)N[C@@H](CCC(=O)O)C(=O)N1)C(=O)N[C@@H](CCCCN)C(=O)N[C@@H](CCC(N)=O)C(=O)N[C@@H](CCCCN)C(=O)N[C@@H](CCCCN)C(=O)N[C@@H](CCCCN)C(=O)N[C@@H](CCC(=O)O)C(=O)N[C@@H](Cc1ccccc1)C(=O)N[C@@H](CCCCN)C(N)=O` [compound 266], the IC50 against human PAC1 receptor was 1 to 100 nM; against rat PAC1 receptor it was 0.01 to 1 nM.
